Laboratory results: patent publication US7217735B1, “Methods and compositions for enhancing delivery of therapeutic agents to tissues” (priority 1999, dated 2007)

Tested on: patient tumors (head and neck, ovarian) and xenograft tumor
Test: Paclitaxel uptake in tumor histocultures, all three tumor types

Structure (SMILES): CC(=O)O[C@H]1C(=O)[C@@]2(C)[C@H]([C@H](OC(=O)c3ccccc3)[C@]3(O)C[C@H](OC(=O)[C@H](O)[C@@H](NC(=O)c4ccccc4)c4ccccc4)C(C)=C1C3(C)C)[C@]1(OC(C)=O)CO[C@@H]1C[C@@H]2O [paclitaxel]
- dose accounted for (mass balance): about 90%
- decrease of drug concentration in the medium (during uptake to steady state): about 25%
- increase in tumor concentration after pseudo steady state (in the next 24 to 48 hr): < 5%
